The term Ki denotes the equilibrium dissociation constant of an inhibitor or competing ligand from its target.

Chains of the proteins cited; added tags and fusions are not shown.
UniProt P32245, whole entry: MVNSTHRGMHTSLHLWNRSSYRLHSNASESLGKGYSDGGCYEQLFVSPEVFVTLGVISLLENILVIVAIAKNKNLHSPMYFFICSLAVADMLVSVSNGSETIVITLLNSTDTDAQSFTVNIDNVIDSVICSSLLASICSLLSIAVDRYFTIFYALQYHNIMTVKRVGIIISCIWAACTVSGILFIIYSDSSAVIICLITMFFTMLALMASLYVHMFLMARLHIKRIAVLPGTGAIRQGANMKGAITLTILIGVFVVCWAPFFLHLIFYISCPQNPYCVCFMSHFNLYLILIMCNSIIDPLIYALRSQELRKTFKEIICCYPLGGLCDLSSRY

The assay addresses MC4 (Homo sapiens, UniProt P32245). Conditions: read-out: MC4 Ki.
Take `CC(=O)N[C@H]1CSSC[C@@H](C(N)=O)NC(=O)[C@H](Cc2c[nH]c3ccccc23)NC(=O)[C@H](CCCNC(=N)N)NC(=O)[C@@H](Cc2ccccc2)NC(=O)[C@H](Cc2c[nH]cn2)NC1=O` [Compound No. 1, Ac-cyclo[Cys-His-D-Phe-Arg-Trp-Cys]-NH2]: the Ki stood at 128 nM.

As to `CC(=O)N[C@@H](Cc1ccc(O)cc1)C(=O)N[C@@H](CCCNC(=N)N)C(=O)N[C@H]1CSSC[C@@H](C(N)=O)NC(=O)[C@H](Cc2c[nH]c3ccccc23)NC(=O)[C@H](CCCNC(=N)N)NC(=O)[C@@H](Cc2ccccc2)NC(=O)[C@H](Cc2c[nH]cn2)NC(=O)[C@H](CCCNC(=N)N)NC1=O` [Compound No. 4, Ac-Tyr-Arg-cyclo[Cys-Arg-His-D-Phe-Arg-Trp-Cys]-NH2], the Ki came to 0.23 nM.

Take `CC(=O)N[C@@H](Cc1ccc(O)cc1)C(=O)N[C@@H](CCCNC(=N)N)C(=O)N[C@H]1CSSC[C@@H](C(N)=O)NC(=O)[C@H](Cc2c[nH]c3ccccc23)NC(=O)[C@H](CCCNC(=N)N)NC(=O)[C@@H](Cc2ccccc2)NC(=O)[C@H](Cc2c[nH]cn2)NC(=O)[C@H](CC(N)=O)NC1=O` [Compound No. 5, Ac-Tyr-Arg-cyclo[Cys-Asn-His-D-Phe-Arg-Trp-Cys]-NH2]: the Ki came to 0.42 nM. Turning to `CC(=O)N[C@H]1CSSC[C@@H](C(N)=O)NC(=O)[C@H](Cc2c[nH]c3ccccc23)NC(=O)[C@H](CCCNC(=N)N)NC(=O)[C@@H](Cc2ccccc2)NC(=O)[C@H](Cc2c[nH]cn2)NC(=O)[C@H](CC(=O)O)NC1=O` [Compound No. 6, Ac-cyclo[Cys-Asp-His-D-Phe-Arg-Trp-Cys]-NH2], the Ki worked out at 2.15 nM.

For `CC(=O)N[C@@H](Cc1ccc(O)cc1)C(=O)N[C@@H](CCCNC(=N)N)C(=O)N[C@H]1CSSC[C@@H](C(N)=O)NC(=O)[C@H](Cc2c[nH]c3ccccc23)NC(=O)[C@H](CCCNC(=N)N)NC(=O)[C@@H](Cc2ccccc2)NC(=O)[C@H](Cc2c[nH]cn2)NC(=O)[C@H](CC(=O)O)NC1=O` [Compound No. 7, Ac-Tyr-Arg-cyclo[Cys-Asp-His-D-Phe-Arg-Trp-Cys]-NH2], the Ki turned out to be 0.82 nM. On to `CC(=O)N[C@H]1CSSC[C@@H](C(N)=O)NC(=O)[C@H](Cc2c[nH]c3ccccc23)NC(=O)[C@H](CCCNC(=N)N)NC(=O)[C@@H](Cc2ccccc2)NC(=O)[C@H](Cc2c[nH]cn2)NC(=O)[C@H](CCC(N)=O)NC1=O` [Compound No. 8, Ac-cyclo[Cys-Gln-His-D-Phe-Arg-Trp-Cys]-NH2], for which the Ki turned out to be 1.43 nM.

For `CC(=O)N[C@@H](Cc1ccc(O)cc1)C(=O)N[C@@H](CCCNC(=N)N)C(=O)N[C@H]1CSSC[C@@H](C(=O)O)NC(=O)[C@H](Cc2c[nH]c3ccccc23)NC(=O)[C@H](CCCNC(=N)N)NC(=O)[C@@H](Cc2ccccc2)NC(=O)[C@H](Cc2c[nH]cn2)NC(=O)[C@H](CCC(N)=O)NC1=O` [Compound No. 9, Ac-Tyr-Arg-cyclo[Cys-Gln-His-D-Phe-Arg-Trp-Cys]-OH], the Ki was 2.39 nM. On to `COC(=O)[C@@H]1CSSC[C@H](NC(=O)[C@H](CCCNC(=N)N)NC(=O)[C@H](Cc2ccc(O)cc2)NC(C)=O)C(=O)N[C@@H](CCC(N)=O)C(=O)N[C@@H](Cc2c[nH]cn2)C(=O)N[C@H](Cc2ccccc2)C(=O)N[C@@H](CCCNC(=N)N)C(=O)N[C@@H](Cc2c[nH]c3ccccc23)C(=O)N1` [Compound No. 10, Ac-Tyr-Arg-cyclo[Cys-Gln-His-D-Phe-Arg-Trp-Cys]-OMe], for which the Ki amounted to 0.1 nM. Turning to `N=C(N)NCCC[C@H](NC(=O)[C@@H](N)Cc1ccc(O)cc1)C(=O)N[C@H]1CSSC[C@@H](C(N)=O)NC(=O)[C@H](Cc2c[nH]c3ccccc23)NC(=O)[C@H](CCCNC(=N)N)NC(=O)[C@@H](Cc2ccccc2)NC(=O)[C@H](Cc2c[nH]cn2)NC(=O)CNC1=O` [Compound No. 11, Tyr-Arg-cyclo[Cys-Gly-His-D-Phe-Arg-Trp-Cys]-NH2], the Ki was 1.26 nM. On to `CC(=O)N[C@@H](Cc1ccc(O)cc1)C(=O)N[C@@H](CCCNC(=N)N)C(=O)N[C@H]1CSSC[C@@H](C(N)=O)NC(=O)[C@H](Cc2c[nH]c3ccccc23)NC(=O)[C@H](CCCNC(=N)N)NC(=O)[C@@H](Cc2ccccc2)NC(=O)[C@H](Cc2c[nH]cn2)NC(=O)CNC1=O` [Compound No. 12, Ac-Tyr-Arg-cyclo[Cys-Gly-His-D-Phe-Arg-Trp-Cys]-NH2], for which the Ki came to 1.1 nM. As for `CC(=O)N[C@@H](Cc1ccc(O)cc1)C(=O)N[C@@H](CCCNC(=N)N)C(=O)N[C@H]1CSSC[C@@H](C(N)=O)NC(=O)[C@H](Cc2c[nH]c3ccccc23)NC(=O)[C@H](CCCNC(=N)N)NC(=O)[C@@H](Cc2ccccc2)NC(=O)[C@H](Cc2c[nH]cn2)NC(=O)[C@H](Cc2c[nH]cn2)NC1=O` [Compound No. 13, Ac-Tyr-Arg-cyclo[Cys-His-His-D-Phe-Arg-Trp-Cys]-NH2], the Ki came out at 0.34 nM. Take `CC(=O)N[C@H]1CSSC[C@@H](C(N)=O)NC(=O)[C@H](Cc2c[nH]c3ccccc23)NC(=O)[C@H](CCCNC(=N)N)NC(=O)[C@@H](Cc2ccccc2)NC(=O)[C@H](Cc2c[nH]cn2)NC(=O)[C@H](CC(C)C)NC1=O` [Compound No. 15, Ac-cyclo[Cys-Leu-His-D-Phe-Arg-Trp-Cys]-NH2]: the Ki stood at 0.67 nM. Turning to `CC(=O)N[C@H]1CSSC[C@@H](C(N)=O)NC(=O)[C@H](Cc2c[nH]c3ccccc23)NC(=O)[C@H](CCCNC(=N)N)NC(=O)[C@@H](Cc2ccccc2)NC(=O)[C@H](Cc2c[nH]cn2)NC(=O)[C@H](CCCCN)NC1=O` [Compound No. 16, Ac-cyclo[Cys-Lys-His-D-Phe-Arg-Trp-Cys]-NH2], the Ki stood at 0.83 nM.

`CC(=O)N[C@@H](Cc1ccc(O)cc1)C(=O)N[C@@H](CCCNC(=N)N)C(=O)N[C@H]1CSSC[C@@H](C(N)=O)NC(=O)[C@H](Cc2c[nH]c3ccccc23)NC(=O)[C@H](CCCNC(=N)N)NC(=O)[C@@H](Cc2ccccc2)NC(=O)[C@H](Cc2c[nH]cn2)NC(=O)[C@H](Cc2ccccc2)NC1=O` [Compound No. 19, Ac-Tyr-Arg-cyclo[Cys-Phe-His-D-Phe-Arg-Trp-Cys]-NH2]: the Ki is 0.53 nM. Take `CC(=O)N[C@@H](Cc1ccc(O)cc1)C(=O)N[C@@H](CCCNC(=N)N)C(=O)N[C@H]1CSSC[C@@H](C(N)=O)NC(=O)[C@H](Cc2c[nH]c3ccccc23)NC(=O)[C@H](CCCNC(=N)N)NC(=O)[C@@H](Cc2ccccc2)NC(=O)[C@H](Cc2c[nH]cn2)NC(=O)[C@@H]2CCCN2C1=O` [Compound No. 20, Ac-Tyr-Arg-cyclo[Cys-Pro-His-D-Phe-Arg-Trp-Cys]-NH2]: the Ki was 0.48 nM. To `CC(=O)N[C@@H](Cc1ccc(O)cc1)C(=O)N[C@@H](CCCNC(=N)N)C(=O)N[C@H]1CSSC[C@@H](C(N)=O)NC(=O)[C@H](Cc2c[nH]c3ccccc23)NC(=O)[C@H](CCCNC(=N)N)NC(=O)[C@@H](Cc2ccccc2)NC(=O)[C@H](Cc2c[nH]cn2)NC(=O)[C@H](CO)NC1=O` [Compound No. 21, Ac-Tyr-Arg-cyclo[Cys-Ser-His-D-Phe-Arg-Trp-Cys]-NH2] belongs 0.22 nM; to `CC(=O)N[C@@H](Cc1ccc(O)cc1)C(=O)N[C@@H](CCCNC(=N)N)C(=O)N[C@H]1CSSC[C@@H](C(N)=O)NC(=O)[C@H](Cc2c[nH]c3ccccc23)NC(=O)[C@H](CCCNC(=N)N)NC(=O)[C@@H](Cc2ccccc2)NC(=O)[C@H](Cc2c[nH]cn2)NC(=O)[C@H]([C@@H](C)O)NC1=O` [Compound No. 22, Ac-Tyr-Arg-cyclo[Cys-Thr-His-D-Phe-Arg-Trp-Cys]-NH2], 0.27 nM.

These data come from US20070105759A1 (priority 2003, published 2007).
